Measured affinities in a library of Ab-14 heavy chain variants

Source: Li et al. 2023 (doi:10.1038/s41467-023-39022-2), MIT Lincoln Laboratory and A-Alpha Bio; data file from the FLAb repository.

Target peptide (SARS-CoV-2 spike, HR2 region): PDVDLGDISGINAS

The variants keep the light chain, the linker and the frameworks of Ab-14 (scFv order VH, a 15-residue (Gly4Ser)3 linker, VL).
VH: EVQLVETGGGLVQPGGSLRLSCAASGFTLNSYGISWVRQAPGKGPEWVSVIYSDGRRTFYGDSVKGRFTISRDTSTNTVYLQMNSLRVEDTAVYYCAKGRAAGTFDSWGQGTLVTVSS
VL: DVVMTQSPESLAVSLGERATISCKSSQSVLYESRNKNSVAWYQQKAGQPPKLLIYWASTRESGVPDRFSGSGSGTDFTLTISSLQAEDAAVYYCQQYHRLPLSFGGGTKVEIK

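The parent was found by panning a naive human phage display library on the peptide. Designed CDR sequences, proposed from the first random library and measured here. Several design methods are mixed in this list. The assay is AlphaSeq: two haploid yeast populations carry antibody and antigen on their surface. Mating (16 h, 30 °C) was followed by selection of diploids and sequencing of their barcodes. Each replicate has its own calibration line, from reference interactions of the BCL2 family. Each pool was mated in six replicate cultures.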

Each variant is given by its three heavy chain CDRs, as the data file delimits them; those of the parent are GFTLNSYGIS, VIYSDGRRTFYGDSVK, GRAAGTFDS.
This list holds designs with at most six substitutions.
Kd is apparent (estimated from mating counts) and averaged on the log scale over replicates with a signal. Smaller is tighter.
A pair that was not seen in any replicate is written "nd"; this usually means weak binding, but a binder can also be missed.

The variant GFSLNSYGIS | VIYSDGRRTFYADAVK | GNAAGTFDS showed 1.8 nM (6 of 6 replicates; controls 0 of 18). The variant GYTLNEYGIS | VIYSDGRRTEYSDSVK | GRAAGTFDS showed 53 nM (1 of 6 replicates; controls 0 of 18). With GFTLNEYGIS | VIYSDGRRTWYTDSVK | GRFAGTFDS the result was 7.2 nM (3 of 6 replicates; controls 0 of 18). The variant GFTLNSYGIS | VIYSDGRRTFYSDSVK | GVAGGTFDS gave nd (0 of 6 replicates; controls 0 of 18). For GFTLNEYGIS | VIYSDGRRTFYGDSVK | GRAALTFFS, the assay gave nd (0 of 6 replicates; controls 0 of 18). For GFTLNSYGIS | VIYSDGRRTFYSDSVK | GKEAGTFDT, the assay gave 450 pM (6 of 6 replicates; controls 1 of 18). For GFTLNSYSIN | VIYSDGRRTFYLNSVK | GRIAGTFDS, the assay gave nd (0 of 6 replicates; controls 0 of 18). The variant GFNLNSYGIS | VIYSDGRRTFYADDVK | GKAAGTFDS showed 9.1 nM (6 of 6 replicates; controls 0 of 18).

The variant GFTINSYGIS | VIYSDGRRTFYGDSVK | GRAEGFFDS showed nd (0 of 6 replicates; controls 0 of 18). For GFTLNDYGIS | VIYSDGRRTQYSDSVK | GRAAGKFDS, the assay gave 190 nM (1 of 6 replicates; controls 0 of 18). The variant GFELNSYGIS | VIYSDGRRTFYGDSVK | GRQAGTFDA showed 9.1 nM (4 of 6 replicates; controls 0 of 18). The variant KFTLNSYGIS | VIYSDGRRTFYADSVK | GKTAGTFDS gave 4.1 nM (6 of 6 replicates; controls 0 of 18). The variant GFTLDFYGIS | VIYSDGRRTFYGDSVK | GRAAGTALS gave 220 nM (2 of 6 replicates; controls 0 of 18). The variant GFELNSYGIS | VIYSDGRRTFYADMVK | GKTAGTFDS showed 22 nM (6 of 6 replicates; controls 0 of 18). With GFFLNEYGIS | VIYSDGRRTFYGDSVK | GQEAGTFDT the result was 2.8 nM (6 of 6 replicates; controls 0 of 18). For GFTLNSYGIS | VIYSDGRRTFYGDAVK | GREAGTFTS, the assay gave 5.0 nM (6 of 6 replicates; controls 0 of 18).

With GFTLNSYGIS | VIYSDGRRTFYSDSVK | GQTAGTFDD the result was 730 pM (6 of 6 replicates; controls 1 of 18). For GFDLNSYGIS | VIYSDGRRTFYHDSVK | GREAGTFDS, the assay gave 840 pM (5 of 6 replicates; controls 0 of 18). The variant GFELNSYGIS | VIYSDGKRTFYGDSVK | GKAAGTFDV gave 1.6 nM (6 of 6 replicates; controls 0 of 18). For GFTLNSYGIS | VIYSSGRRTFYSDSVK | GRAGGTFDS, the assay gave 380 nM (2 of 6 replicates; controls 0 of 18). The variant GFSLNEYGIS | VIYSDGRRTFYGDSVK | GRTAGTFTS gave 3.0 nM (6 of 6 replicates; controls 0 of 18). For GFTLDKYGIS | VIYSDGRRTFYGDSVK | GRTAGTFDS, the assay gave 2.1 nM (6 of 6 replicates; controls 1 of 18). For GFELNEYGIS | VIYSDGRRTFYGDSVK | GYAAGTFDS, the assay gave 13 nM (5 of 6 replicates; controls 0 of 18). The variant GFHLNSYGIS | VIYSDGRRTFYHDSVK | GQTAGTFDS gave 4.0 nM (6 of 6 replicates; controls 0 of 18).

The variant GFTLNSYGIS | VIYSDGRRVFYEDSVK | GREALTTSS showed nd (0 of 6 replicates; controls 1 of 18). For GFDLNEYGIS | VIYADGRRTFYVDSVK | GEAAGTFDV, the assay gave 4.6 nM (6 of 6 replicates; controls 0 of 18). The variant GFNLNSYGIS | VIYSDGYRTFYGDSVK | GRAAGTFDW gave nd (0 of 6 replicates; controls 0 of 18). For GFTLNEYGIS | VYYSDGRRTFYGDSVK | GRAAVTFDQ, the assay gave nd (0 of 6 replicates; controls 0 of 18). The variant GFHLEEYGIS | VIYSDGRREFYGDSVK | GRAAGTFVS gave 17 nM (6 of 6 replicates; controls 1 of 18). With GFTLNSYGIS | VIYSDGRRTFYSDSVK | GRTGGTFDS the result was 4.0 nM (6 of 6 replicates; controls 0 of 18). For GFELNSYGIS | VIYSDGRRTFYVDSVK | GRVAGTFDS, the assay gave 12 nM (5 of 6 replicates; controls 0 of 18). With GFSLESYGIS | VIYSDGRRTFYADDVK | GRAAGTFDS the result was 1.4 nM (6 of 6 replicates; controls 0 of 18).

For GFQLNDYGIS | VIYSDGRRTFYIDPVK | GKAAGTFDS, the assay gave 5.5 nM (1 of 6 replicates; controls 0 of 18). The variant GFQLNSYGIS | VIYSDGRRTFYQDSVK | GRTAGTFDV showed 7.1 nM (6 of 6 replicates; controls 0 of 18). The variant GFTLNEYGIS | VIYSDGRRTFYSDSVK | GRAVGTFDS gave nd (0 of 6 replicates; controls 0 of 18). For GFDLNSYGIS | VIYSDGRRTAYTDSFK | GRAAGTFDS, the assay gave nd (0 of 6 replicates; controls 0 of 18). The variant GFTLNEYGIS | VIYSDGRRTFYGDSVK | GRVAGTFDI gave 8.3 nM (3 of 6 replicates; controls 0 of 18). The variant GFTLNSYGIS | VIYSDGRRTEYGDAVK | GRAAGTFDS showed 260 nM (5 of 6 replicates; controls 0 of 18). The variant GFRLNSYGIS | VIYSDGRRTFYADSVK | GQTAGTFDS gave 8.3 nM (6 of 6 replicates; controls 0 of 18). The variant GFDLNSYGIS | VIYSDGRRTFYHDSVK | GRAAGTFDS gave 5.3 nM (7 of 12 replicates; controls 0 of 36).

With GFSLNNYGIS | VIYSDGRRTFYDDSVK | GQLAGTFDS the result was 10 nM (6 of 6 replicates; controls 0 of 18). The variant GFDLNTYGIS | VIYSDGRRTFYGDSVK | GRTAGTFDS showed 1.1 nM (6 of 6 replicates; controls 0 of 18). The variant GFELNSYGIS | VIYSDGRRTFYSDSVK | GQEAGTFDS showed 550 pM (6 of 6 replicates; controls 0 of 18). With GFDLNEYGIS | VIYADGRRTFYADSVK | GNYAGTFDS the result was 490 pM (6 of 6 replicates; controls 1 of 18). The variant GFTLNSYGIS | VIYSDGRRTFYGDSVK | GAAAGTFDS gave 1.2 nM (2 of 6 replicates; controls 0 of 18). The variant GFTPNSYGIS | VIYSDGRRTFYGDSVK | GRAGGTFDS showed nd (0 of 6 replicates; controls 0 of 18).

The first 3 entries again:

Variant GFSLNSYGIS | VIYSDGRRTFYADAVK | GNAAGTFDS gave 1.8 nM (6 of 6 replicates; controls 0 of 18).
Variant GYTLNEYGIS | VIYSDGRRTEYSDSVK | GRAAGTFDS gave 53 nM (1 of 6 replicates; controls 0 of 18).
Variant GFTLNEYGIS | VIYSDGRRTWYTDSVK | GRFAGTFDS gave 7.2 nM (3 of 6 replicates; controls 0 of 18).

As a blank, each scFv also met three strains without target: over all heavy chain designs, 1% of these pairings were detected, typically at 120 nM and seldom below 7.0 nM. Also given: how often the same scFv was detected with the empty control strains.
The authors' rule: three or more of the six replicates give a measured affinity, fewer mean a poor binder.
Values of this round are not directly comparable with the first-round values of the same sequences.
A sequence that the file lists under several names has all its replicates pooled.
Of ten entries with the parent sequence, four were seen in most replicates (averages 2.2 nM to 240 nM), three in one and three in none, so single entries are noisy.